This note sets out measurements from ChEMBL document CHEMBL1136058, “4-Anilino-3-cyanobenzo[g]quinolines as kinase inhibitors” (Bioorg Med Chem Lett, 2002).

Chains of the proteins cited; added tags and fusions are not shown.
UniProt P00533, whole entry: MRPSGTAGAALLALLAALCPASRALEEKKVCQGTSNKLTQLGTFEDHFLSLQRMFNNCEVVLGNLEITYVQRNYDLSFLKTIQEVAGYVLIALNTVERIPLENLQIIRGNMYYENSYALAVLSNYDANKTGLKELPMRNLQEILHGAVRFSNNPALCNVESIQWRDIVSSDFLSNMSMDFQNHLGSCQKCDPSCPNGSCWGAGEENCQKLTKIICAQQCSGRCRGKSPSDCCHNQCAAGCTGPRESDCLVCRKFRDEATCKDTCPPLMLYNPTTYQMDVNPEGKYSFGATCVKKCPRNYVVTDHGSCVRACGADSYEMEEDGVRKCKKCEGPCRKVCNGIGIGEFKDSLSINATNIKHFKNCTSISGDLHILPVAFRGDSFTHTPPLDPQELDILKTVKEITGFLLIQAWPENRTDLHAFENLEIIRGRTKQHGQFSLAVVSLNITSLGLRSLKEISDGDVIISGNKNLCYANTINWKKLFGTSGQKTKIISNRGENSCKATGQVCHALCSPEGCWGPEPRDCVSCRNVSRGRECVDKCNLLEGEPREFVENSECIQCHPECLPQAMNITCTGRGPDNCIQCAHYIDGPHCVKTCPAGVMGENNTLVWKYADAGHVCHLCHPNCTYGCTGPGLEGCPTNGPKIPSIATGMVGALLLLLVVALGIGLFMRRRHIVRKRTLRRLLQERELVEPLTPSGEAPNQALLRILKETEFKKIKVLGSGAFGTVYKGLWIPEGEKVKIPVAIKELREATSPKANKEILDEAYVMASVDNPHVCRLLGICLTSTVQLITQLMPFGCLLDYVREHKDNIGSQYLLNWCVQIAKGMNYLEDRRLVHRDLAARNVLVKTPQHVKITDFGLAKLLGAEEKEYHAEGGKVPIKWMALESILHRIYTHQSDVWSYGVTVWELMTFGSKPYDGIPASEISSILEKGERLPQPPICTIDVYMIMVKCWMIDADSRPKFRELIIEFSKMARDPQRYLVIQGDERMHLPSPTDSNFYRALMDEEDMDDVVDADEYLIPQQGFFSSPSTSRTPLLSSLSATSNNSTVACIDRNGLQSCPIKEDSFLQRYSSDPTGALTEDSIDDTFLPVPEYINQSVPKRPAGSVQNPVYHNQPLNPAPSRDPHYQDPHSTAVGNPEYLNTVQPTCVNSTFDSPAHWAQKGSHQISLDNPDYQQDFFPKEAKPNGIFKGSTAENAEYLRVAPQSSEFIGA

In one assay the test system is SW-620. Kind of assay: Inhibition of SW620 cell proliferation. The following applies: Homo sapiens.
The target of assay [1] is Epidermal growth factor receptor (Homo sapiens, UniProt P00533). Kind of assay: Inhibition of epidermal growth factor receptor (EGFR).

A word on the IC50: it is the concentration that inhibits the measured activity by half. A higher IC50 goes with weaker potency.

As for `COc1cc2ncc(C#N)c(Nc3ccc(F)c(Cl)c3)c2cc1OC`, the IC50 with SW-620 was found to be 9.89 µM; in assay [1] it was 5.17 µM.
